One assay deals with human 5HT2c receptor (Homo sapiens, UniProt P28335). As to the kind of experiment: 5HT2c Binding Procedure (competition binding against 3H-5HT, membranes of transfected Swiss 3T3 mouse cells). Particulars: read-out: 2cKi. The procedure: Affinity of compounds at the serotonin 5HT2c binding site is determined by competition binding in Swiss 3T3 mouse cells (available from the American Type Culture Collection (ATCC), Manassas, Va.) transfected with the human 5HT2c receptor against ^3H-5HT.

The chains behind the UniProt entries cited, without tags or fusion partners. Residues count along the entry.
UniProt P28335, 33-458 limits assumed: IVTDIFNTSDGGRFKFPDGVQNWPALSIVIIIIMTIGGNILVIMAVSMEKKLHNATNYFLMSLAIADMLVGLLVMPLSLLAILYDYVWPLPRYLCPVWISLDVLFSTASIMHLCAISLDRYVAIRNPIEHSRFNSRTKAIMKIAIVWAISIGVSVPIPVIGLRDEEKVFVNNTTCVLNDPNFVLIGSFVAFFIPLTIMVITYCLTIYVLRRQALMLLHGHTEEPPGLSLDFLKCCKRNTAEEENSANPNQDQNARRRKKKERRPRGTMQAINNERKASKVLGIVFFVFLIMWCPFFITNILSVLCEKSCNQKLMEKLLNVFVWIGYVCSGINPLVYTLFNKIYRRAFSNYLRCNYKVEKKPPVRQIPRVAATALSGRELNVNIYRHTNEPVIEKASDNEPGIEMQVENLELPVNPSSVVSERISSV
UniProt P14842, whole entry: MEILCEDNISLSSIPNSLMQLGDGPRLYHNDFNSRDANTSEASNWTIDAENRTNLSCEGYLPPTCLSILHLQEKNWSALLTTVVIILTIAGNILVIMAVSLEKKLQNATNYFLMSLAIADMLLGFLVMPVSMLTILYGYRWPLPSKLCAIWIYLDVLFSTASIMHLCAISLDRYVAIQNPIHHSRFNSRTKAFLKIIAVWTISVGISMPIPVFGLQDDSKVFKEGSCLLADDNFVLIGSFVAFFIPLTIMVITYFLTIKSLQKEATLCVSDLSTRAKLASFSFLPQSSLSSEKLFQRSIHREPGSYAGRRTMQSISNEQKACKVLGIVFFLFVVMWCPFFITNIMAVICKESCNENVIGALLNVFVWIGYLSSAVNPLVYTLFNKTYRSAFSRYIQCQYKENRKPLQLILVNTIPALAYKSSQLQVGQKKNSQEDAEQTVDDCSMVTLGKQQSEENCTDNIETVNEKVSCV
UniProt P41595, whole entry: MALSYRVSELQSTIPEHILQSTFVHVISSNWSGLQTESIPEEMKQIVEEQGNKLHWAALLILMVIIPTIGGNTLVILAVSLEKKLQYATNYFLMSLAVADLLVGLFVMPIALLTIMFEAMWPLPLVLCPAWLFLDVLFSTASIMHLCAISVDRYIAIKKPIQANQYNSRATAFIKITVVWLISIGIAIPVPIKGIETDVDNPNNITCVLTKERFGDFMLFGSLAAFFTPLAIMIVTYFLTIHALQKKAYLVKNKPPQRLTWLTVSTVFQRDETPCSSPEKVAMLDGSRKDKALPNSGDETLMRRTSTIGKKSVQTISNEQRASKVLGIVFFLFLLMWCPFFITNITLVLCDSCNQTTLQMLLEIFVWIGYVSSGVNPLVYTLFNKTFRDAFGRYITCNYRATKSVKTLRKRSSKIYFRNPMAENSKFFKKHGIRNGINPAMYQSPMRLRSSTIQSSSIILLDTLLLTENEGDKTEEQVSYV

In the next assay the target is rat 5HT2a receptor (Rattus norvegicus, UniProt P14842). The experiment in a line: 5HT2a Binding Procedure (competition binding using 125I-DOI, membranes of transfected NIH 3T3 mouse cells). The settings on record: read-out: 2aKi. Here is the method: Affinity of compounds at the serotonin 5HT2a binding site is determined by competition binding in NIH 3T3 mouse cells transfected with the rat 5HT2a receptor using 125I-DOI.

The next assay addresses human 5HT2b receptor (Homo sapiens, UniProt P41595). The experiment in a line: 5HT2b Binding Procedure (competition binding with 3H-LSD, CHO cell membranes). Particulars: read-out: 2bKi.

As for `Fc1c(Cl)cccc1O[C@H]1CCCc2cc(Cl)c(N3CCNCC3)nc21`, the Ki at human 5HT2c receptor came out at 5.82 nM; at rat 5HT2a receptor, 7.11 nM; at human 5HT2b receptor it was 12 nM.

The values above are taken from patent US7507732B2, “Cyclopentapyridine and tetrahydroquinoline derivatives” (Pfizer Inc., priority 2005, dated 2009).
